In the case of Zinc Glycine Iodide [Example IV], the “Average Serum iodine level (day 2-day 14)” value (in vivo) is reported as 380 and the “Serum iodine Day 10 (last treatment day)” value (nonlactating pregnant beef cows, 60 mg Iodine/day for 10 days) is reported as 637.
